# Test results published in US8884011B2, “Nucleotide analogues as precursor molecules for antivirals” (Centre National de la Recherche Scientifique-CNRS, priority 2006, dated 2014).
# Tested on: HBV
# Assay: Anti-HBV test in infected HepAD38 cells (intracellular viral DNA by Q-PCR)
# Type: cell-based
# Description: These are hepatoma cells that have been stably transfected with a cDNA copy of the pregenomic RNA of wild-type virus. Withdrawal of tetracycline from the culture medium results in the initiation of viral replication. This offers the advantage, in contrast to the Hep G2.2.15 cell lines commonly used, that there is no, or very limited background viral DNA synthesis. Cells were cultured at 37° C. in a humidified 5% CO2/air atmosphere in seeding medium, DMEM/Ham's F12 (50/50) supplemented with 10% (v/v) heat-inactivated fetal calf serum, 100 IU/ml penicillin, 50 μg/ml streptomycin, 100 Ξg/ml kanamycin, 400 μg/ml G418, and 0.3 μg/ml tetracycline. […] After 2-3 days the cultures were induced for viral production by washing with prewarmed PBS and were fed with […] assay medium (seeding medium without tetracycline and G418) with or without the antiviral compounds. […] The antiviral effect was quantified by measuring levels of intracellular viral DNA at day 6 post-induction, by a real time quantitative PCR (Q-PCR) method. […] The reaction was analyzed using a SDS 7000. […] The amount of viral DNA produced in treated cultures was expressed as a percentage of the mock treated samples. […] The cytostatic effect of the various compounds was assessed employing the parent hepatoma cell line HepG2. The effect of the compounds on exponentially growing HepG2 cells was evaluated by means of the MTS method. […]
row,Structure (SMILES),SI selectivity index (TC50/EC50)
1,"Nc1ncnc2c1ncn2CCOCP(O)(O)=S [Compound 6, 9-[2-(thiophosphonomethoxy)ethyl]adenine]",>17
2,"C[C@H](Cn1cnc2c(N)ncnc21)OCP(O)(O)=S [Compound 11, (R)-9-[2-(thiophosphonomethoxy)propyl]adenine]",>77
